The values below come from US9012365B2, “Compatibility agents for herbicidal formulations comprising 2,4-(Dichlorophenoxy) acetic acid salts” (priority 2006, dated 2015).

A short description of this data set: Appearance of 10 g solution of (2.5 wt % ai 2,4-D DMA + tested chemical) after adding 40% AMS. It is filed as physicochemical. Conditions: summary statement of the description.

Sodium xylene sulfonate: the “Suitability for increasing the solubility of 2,4-D non-amine salt (in words)” value is “ineffective”.
